Data reported in paper PMC3102230 (Chemistry & biology, 2011).

Tested on: E. coli IF2
Conditions: E. coli 70S ribosomes; 1 μM ThS or 5 μM MiC (Figure 2E)

SMILES: C/C=C(\NC(=O)c1csc(-c2csc(-c3ccc4c(n3)-c3csc(n3)[C@H]([C@@H](C)O)NC(=O)c3csc(n3)[C@H](C(C)C)NC(=O)c3csc(n3)/C(=C/C)NC(=O)[C@H]([C@@H](C)O)NC(=O)c3csc-4n3)n2)n1)C(=O)NC[C@@H](C)O [MiC, micrococcin]
- effect on rdGTPase activity of IF2: inhibited
